Drawing on US20190225644A1, “MRNA CAP ANALOGS AND METHODS OF MRNA CAPPING” (ModernaTX, Inc., priority 2015, published 2019), this text covers Kd for 1 compound.

Protein sequences, listed by entry. Tags and fused reporters are not part of them. Residues count along the entry.
UniProt P06730, 32-217: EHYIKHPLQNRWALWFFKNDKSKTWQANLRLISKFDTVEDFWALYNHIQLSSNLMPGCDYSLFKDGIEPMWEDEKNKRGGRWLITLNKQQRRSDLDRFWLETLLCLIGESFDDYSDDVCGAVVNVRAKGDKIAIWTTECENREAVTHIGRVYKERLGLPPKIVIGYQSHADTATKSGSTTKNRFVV

This test addresses eIF4E (Homo sapiens, UniProt P06730). The experiment in a line: biochemical.

“And” between values parts separate entries of the source, which are not always exact repeats. Equal values may be shown once.

As usually defined, the Kd is the concentration at which binding is half-saturated. Higher therefore signals a looser complex.

Turning to `C[n+]1cn([C@@H]2O[C@H](COP(=O)(O)OP(=O)([O-])OP(=O)(O)OC[C@H]3O[C@@H](n4cnc5c(=O)[nH]c(N)nc54)[C@H](O)[C@@H]3O)[C@@H](O)[C@@H]2O)c2nc(N)[nH]c(=O)c21` [Compound 005-11], the Kd is 6.8 µM and 7 µM.
